# AlphaSeq binding of Ab-91 heavy chain variants to a spike HR2 peptide

The measurements come from Engelhart et al. 2022 (doi:10.1038/s41597-022-01779-4) through the FLAb antibody collection.

The target is the same throughout: PDVDLGDISGINAS, from the HR2 region of SARS-CoV-2 spike.

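Phage display of a naive human antibody library on the peptide gave the parent. In library AAYL51, one, two or three CDR residues were substituted; doubles and triples were drawn at random. In AlphaSeq, yeast of one mating type display the scFv and yeast of the other type display the target. After mating in shaken culture at 30 °C for 16 h, diploids were selected and their barcode pairs sequenced. Each replicate has its own calibration line, from reference interactions of the BCL2 family. Mating was done three times.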

Parent: Ab-91, a human scFv built as VL, three GGGGS repeats, VH. Only the CDRs of the heavy chain vary.
VL: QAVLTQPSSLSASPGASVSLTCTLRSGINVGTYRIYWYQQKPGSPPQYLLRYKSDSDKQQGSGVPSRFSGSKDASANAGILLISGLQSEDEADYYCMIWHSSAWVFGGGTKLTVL
VH: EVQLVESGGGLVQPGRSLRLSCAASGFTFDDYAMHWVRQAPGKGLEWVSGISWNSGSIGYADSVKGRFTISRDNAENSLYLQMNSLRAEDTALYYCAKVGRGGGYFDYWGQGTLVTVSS

The parent's heavy chain CDRs are GFTFDDYAMH, GISWNSGSIGYADSVK, VGRGGGYFDY; each variant's own CDRs replace them letter for letter. Affinities are written as log10 Kd with Kd in nM; a lower number is a better binder. A pair that was not seen in that replicate is written "n.d."; this usually means weak binding, but a binder can also be missed. Empty control strains, which show no peptide, gave a signal in 21% of pairings with library AAYL51; the median was 4.54 and 95% of these signals were weaker than 3.26. No background was subtracted. Also given: how often the same scFv was detected with the empty control strains, with their mean in brackets.

CDR-H1,CDR-H2,CDR-H3,"log10 Kd, replicates",control signals
GFTFDDYAMH,GISWNSGSIGYACSVK,VGRGFGKFDY,n.d. n.d. n.d.,4 of 9 (5.11)
GFTFDDYAMI,GHSWNWGSIGYADSVK,VGRGGGYFDY,n.d. n.d. n.d.,3 of 9 (4.66)
GFTFDDYAMH,GISWNSCSIGYADSVK,PGRGPGYFDY,4.28 4.69 n.d.,2 of 9 (4.20)
IFTFDDYAMH,GISWYSGSIGYADSTK,VGRGGGYFDY,n.d. n.d. 3.82,1 of 9 (4.46)
GFTFDDYAMH,GISWRSGSLGYADSVK,VGRGGGYVDY,n.d. n.d. n.d.,0 of 9
GSTFDDYAMH,GISWNSGSITYADSVK,VGRAGGYFDY,n.d. n.d. n.d.,2 of 9 (4.70)
GFTFDDYAMH,GISWNSYSIGYAPSVS,VGRGGGYFDY,4.00 4.89 4.14,6 of 9 (4.59)
GFTFDDYKMH,GISSNSGSIGYADSVK,VGRGGGGFDY,4.77 n.d. n.d.,1 of 9 (3.35)
GFTFDCYADH,GISWNSGSIGYDDSVK,VGRGGGYFDY,n.d. n.d. n.d.,0 of 9
GFTFDDYAMH,GISWNSGSIGYARTVK,VIRGGGYFDY,2.93 2.65 2.38,2 of 9 (5.27)
GFTFDDYAMH,GQSWNSGSVGYADSVK,VGRIGGYFDY,n.d. n.d. n.d.,3 of 9 (3.96)
GFTFDDYAMH,GISWNSGSIGYADSVK,PGRGGGYLRY,n.d. n.d. n.d.,1 of 9 (3.91)
GFTFDDYAMH,AIRWNSGSIGYADSVK,VGRGGNYFDY,n.d. n.d. n.d.,1 of 9 (4.55)
GFTFDDYAMH,GISWNSGSIGYANSVK,WGRGGGVFDY,2.27 2.35 2.37,4 of 9 (5.22)
GFTFVDYAMH,GISWNSGSIGYTDSVK,VGRGGGYFDY,n.d. n.d. n.d.,2 of 9 (4.76)
GFTFDDYAMF,GISWNSGSIGYADSVK,QGRGGGYFVY,4.43 n.d. 5.37,3 of 9 (4.73)
EFTFDDYAMH,GISWNSGSIGYADSVK,VGEGGGYKDY,n.d. n.d. n.d.,2 of 9 (3.07)
GFTVDVYAMH,GISWNSGEIGYADSVK,VGRGGGYFDY,n.d. 2.72 n.d.,0 of 9
GFTFDDYAMH,GISWNSGSYGYADWVC,VGRGGGYFDY,4.77 5.96 3.71,2 of 9 (4.19)
GFTFDDYAMH,GISWNSGSIGYADSVK,VARGGGEFCY,1.22 1.13 0.72,7 of 9 (5.05)
GFTFDDYAMH,GISWNSGSIGYADSVK,VNRGGGPFNY,n.d. n.d. 3.55,2 of 9 (3.27)
GFTFDDHAMH,GISWNSGSIGYADSVK,VGRGGGYFDY,1.43 1.29 1.03,4 of 9 (5.04)
GFTFDDYAMV,GISNNSGLIGYADSVK,VGRGGGYFDY,4.55 n.d. n.d.,1 of 9 (1.85)
GFTFDDYALH,GISWNSGWIGYADSVK,LGRGGGYFDY,n.d. n.d. n.d.,0 of 9
GFTFDDYAMH,GISWNSGSIGYADSVK,VTRGPWYFDY,5.16 3.26 n.d.,2 of 9 (3.39)
GFTFDDYAMH,GISRNSGSIGYADSVF,VGRGGGYFDQ,1.78 1.81 0.99,0 of 9
GFTFDDYAMH,GISWNSGSIGYADSPP,VGRRGGYFDY,5.85 n.d. 4.25,7 of 9 (4.70)
GFFFDDYAMH,GISWNSGYIGYADSVK,KGRGGGYFDY,n.d. n.d. n.d.,1 of 9 (4.83)
GFTFDDYAMH,GISWNSGSIGYGDSVK,VGRGGGYFQY,4.70 n.d. n.d.,5 of 9 (4.44)
GFTFDDYFTH,GISWNSGSIGYADSVK,VGRGGVYFDY,4.57 4.62 n.d.,5 of 9 (4.18)
GFTFDDYAMH,GISWNSSSIEYADSVK,VMRGGGYFDY,n.d. 5.38 n.d.,0 of 9
GFTFDDYARH,GISWNSGSIFYADSVK,VGRGGGYFKY,n.d. n.d. n.d.,0 of 9
GFTGDDYAMH,GISWNSGSIGYFDSVK,VGRGGWYFDY,4.91 n.d. n.d.,1 of 9 (5.45)
GFTFDDYAMH,GIAWNSGSIGYADSIK,VGRGGGYFDY,1.73 1.66 0.90,0 of 9
GFTFDGEAMH,GISWNSGSIGYADSMK,VGRGGGYFDY,3.74 n.d. n.d.,0 of 9
GFTFYDYWMH,AISWNSGSIGYADSVK,VGRGGGYFDY,n.d. 4.68 n.d.,3 of 9 (4.75)
GFTFDDFAMH,GCSWNSGYIGYADSVK,VGRGGGYFDY,n.d. n.d. n.d.,4 of 9 (4.56)
GFTFDYYAMH,GISWNSWSIGYADSVK,VGRGGGEFDY,4.46 n.d. 4.56,2 of 9 (4.22)
GFKFDDYAMH,GISWNSGSIGYADSVK,YGRVGGYFDY,n.d. 6.25 3.88,1 of 9 (5.31)
GFTFDDYAMH,GISWKSGSIGYHDSVK,VGRGCGYFDY,n.d. n.d. n.d.,2 of 9 (3.65)
GFTFDFYAMH,GISWNSGSIGYADSVK,VTRGYGYFDY,n.d. 4.52 n.d.,2 of 9 (3.98)
GFTFDDYRMH,GISWNSGSIGYACSVK,VGRGGGYVDY,4.83 5.51 5.81,7 of 9 (4.82)
GGTFDDYAMH,GISWKSGSIGYADSVK,VGRGGNYFDY,n.d. n.d. 2.62,1 of 9 (3.43)
GMTFDDYAMH,GISWNSGSIGYADSVK,VGRFGNYFDY,n.d. 3.66 n.d.,3 of 9 (4.58)
NFTFDDYAMH,GIRWNSGSIGYADSVK,VGRGTGYFDY,n.d. 4.20 n.d.,1 of 9 (5.57)
GFTFDDYAMH,GISWNSGSIGFADSVK,VGRGGGYTDY,n.d. n.d. n.d.,1 of 9 (4.68)
GFTFDDYAMH,GIMWFSGSIGYADSVP,VGRGGGYFDY,6.08 4.83 5.75,5 of 9 (4.78)
GFTFDDYAMH,GITINSGSIGYADSVK,VGRQGGYFDY,n.d. n.d. n.d.,2 of 9 (4.16)

From the list, the first 8 with no signal in any replicate:

{"CDR-H1": "GFTFDDYAMH", "CDR-H2": "GISWNSGSIGYACSVK", "CDR-H3": "VGRGFGKFDY", "log10 Kd, replicates": "n.d. n.d. n.d.", "control signals": "4 of 9 (5.11)"}
{"CDR-H1": "GFTFDDYAMI", "CDR-H2": "GHSWNWGSIGYADSVK", "CDR-H3": "VGRGGGYFDY", "log10 Kd, replicates": "n.d. n.d. n.d.", "control signals": "3 of 9 (4.66)"}
{"CDR-H1": "GFTFDDYAMH", "CDR-H2": "GISWRSGSLGYADSVK", "CDR-H3": "VGRGGGYVDY", "log10 Kd, replicates": "n.d. n.d. n.d.", "control signals": "0 of 9"}
{"CDR-H1": "GSTFDDYAMH", "CDR-H2": "GISWNSGSITYADSVK", "CDR-H3": "VGRAGGYFDY", "log10 Kd, replicates": "n.d. n.d. n.d.", "control signals": "2 of 9 (4.70)"}
{"CDR-H1": "GFTFDCYADH", "CDR-H2": "GISWNSGSIGYDDSVK", "CDR-H3": "VGRGGGYFDY", "log10 Kd, replicates": "n.d. n.d. n.d.", "control signals": "0 of 9"}
{"CDR-H1": "GFTFDDYAMH", "CDR-H2": "GQSWNSGSVGYADSVK", "CDR-H3": "VGRIGGYFDY", "log10 Kd, replicates": "n.d. n.d. n.d.", "control signals": "3 of 9 (3.96)"}
{"CDR-H1": "GFTFDDYAMH", "CDR-H2": "GISWNSGSIGYADSVK", "CDR-H3": "PGRGGGYLRY", "log10 Kd, replicates": "n.d. n.d. n.d.", "control signals": "1 of 9 (3.91)"}
{"CDR-H1": "GFTFDDYAMH", "CDR-H2": "AIRWNSGSIGYADSVK", "CDR-H3": "VGRGGNYFDY", "log10 Kd, replicates": "n.d. n.d. n.d.", "control signals": "1 of 9 (4.55)"}